Results from patent US4430435A (priority 1980, dated 1984).
Like-named read-outs stand apart in the source and are kept apart here.

Sequences of proteins named here, by UniProt entry; tags and fusion partners are left off.
UniProt P20288, whole entry, looked up: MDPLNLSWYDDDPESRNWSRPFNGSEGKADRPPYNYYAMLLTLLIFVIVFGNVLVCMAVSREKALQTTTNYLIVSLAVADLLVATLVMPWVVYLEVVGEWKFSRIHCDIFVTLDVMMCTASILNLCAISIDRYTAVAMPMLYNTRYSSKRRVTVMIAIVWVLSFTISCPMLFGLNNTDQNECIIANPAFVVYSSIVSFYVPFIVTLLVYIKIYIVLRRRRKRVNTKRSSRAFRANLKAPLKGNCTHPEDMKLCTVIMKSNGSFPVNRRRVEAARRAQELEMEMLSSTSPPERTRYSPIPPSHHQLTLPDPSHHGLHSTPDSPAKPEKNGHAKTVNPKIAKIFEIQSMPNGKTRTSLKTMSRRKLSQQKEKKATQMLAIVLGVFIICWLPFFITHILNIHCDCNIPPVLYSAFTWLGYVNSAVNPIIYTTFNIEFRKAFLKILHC

How the values were obtained:
calf caudate = calf caudate (Bos taurus, UniProt P20288)
[1] = last line of Table 4, μg/Tube TBP not given

CCCCOP(=O)(OCCCC)OCCCC
125I-HYP Bound (CPM) in Buffer (β-Adrenergic Receptors; 0.10 μg/ml TBP): 8002 CPM | 125I-HYP Bound (CPM) in Serum (β-Adrenergic Receptors; 0.10 μg/ml TBP): 2067 CPM | % Change in Buffer (β-Adrenergic Receptors; 0.10 μg/ml TBP): -6% | % Change in Serum (β-Adrenergic Receptors; 0.10 μg/ml TBP): +3% | 125I-HYP Bound (CPM) in Buffer (β-Adrenergic Receptors; 0.20 μg/ml TBP): 7987 CPM | 125I-HYP Bound (CPM) in Serum (β-Adrenergic Receptors; 0.20 μg/ml TBP): 2537 CPM | % Change in Buffer (β-Adrenergic Receptors; 0.20 μg/ml TBP): -6% | % Change in Serum (β-Adrenergic Receptors; 0.20 μg/ml TBP): +26% | 125I-HYP Bound (CPM) in Buffer (β-Adrenergic Receptors; 0.50 μg/ml TBP): 8066 CPM | 125I-HYP Bound (CPM) in Serum (β-Adrenergic Receptors; 0.50 μg/ml TBP): 5853 CPM | % Change in Buffer (β-Adrenergic Receptors; 0.50 μg/ml TBP): -6% | % Change in Serum (β-Adrenergic Receptors; 0.50 μg/ml TBP): +191% | 125I-HYP Bound (CPM) in Buffer (β-Adrenergic Receptors; 1.0 μg/ml TBP): 8051 CPM | 125I-HYP Bound (CPM) in Serum (β-Adrenergic Receptors; 1.0 μg/ml TBP): 5791 CPM | % Change in Buffer (β-Adrenergic Receptors; 1.0 μg/ml TBP): -6% | % Change in Serum (β-Adrenergic Receptors; 1.0 μg/ml TBP): +188% | 125I-HYP Bound (CPM) in Buffer (β-Adrenergic Receptors; 5.0 μg/ml TBP): 8091 CPM | 125I-HYP Bound (CPM) in Serum (β-Adrenergic Receptors; 5.0 μg/ml TBP): 5871 CPM | % Change in Buffer (β-Adrenergic Receptors; 5.0 μg/ml TBP): -5% | % Change in Serum (β-Adrenergic Receptors; 5.0 μg/ml TBP): +192% | 125I-HYP Bound (CPM) in Buffer (β-Adrenergic Receptors; 10.0 μg/ml TBP): 7899 CPM | 125I-HYP Bound (CPM) in Serum (β-Adrenergic Receptors; 10.0 μg/ml TBP): 5863 CPM | % Change in Buffer (β-Adrenergic Receptors; 10.0 μg/ml TBP): -6% | % Change in Serum (β-Adrenergic Receptors; 10.0 μg/ml TBP): +192% | % 3H-Spiperone Bound in Buffer (calf caudate; 1.56 μg/Tube TBP): 37.3% | % 3H-Spiperone Bound in Serum (calf caudate; 1.56 μg/Tube TBP): 29.5% | % Change in Buffer (calf caudate; 1.56 μg/Tube TBP): +1% | % Change in Serum (calf caudate; 1.56 μg/Tube TBP): +24% | % 3H-Spiperone Bound in Buffer (calf caudate; 3.13 μg/Tube TBP): 36.4% | % 3H-Spiperone Bound in Serum (calf caudate; 3.13 μg/Tube TBP): 30.6% | % Change in Buffer (calf caudate; 3.13 μg/Tube TBP): -2% | % Change in Serum (calf caudate; 3.13 μg/Tube TBP): +29% | % 3H-Spiperone Bound in Buffer (calf caudate; 6.25 μg/Tube TBP): 36.0% | % 3H-Spiperone Bound in Serum (calf caudate; 6.25 μg/Tube TBP): 31.6% | % Change in Buffer (calf caudate; 6.25 μg/Tube TBP): -3% | % Change in Serum (calf caudate; 6.25 μg/Tube TBP): +33% | % 3H-Spiperone Bound in Buffer (calf caudate; 12.5 μg/Tube TBP): 35.1% | % 3H-Spiperone Bound in Serum (calf caudate; 12.5 μg/Tube TBP): 31.6% | % Change in Buffer (calf caudate; 12.5 μg/Tube TBP): -5% | % Change in Serum (calf caudate; 12.5 μg/Tube TBP): +33% | % 3H-Spiperone Bound in Buffer (calf caudate; 25.0 μg/Tube TBP): 29.3% | % 3H-Spiperone Bound in Serum (calf caudate; 25.0 μg/Tube TBP): 31.4% | % Change in Buffer (calf caudate; 25.0 μg/Tube TBP): -20% | % Change in Serum (calf caudate; 25.0 μg/Tube TBP): +32% | % 3H-Spiperone Bound in Buffer (calf caudate; 100.0 μg/Tube TBP): 23.7% | % 3H-Spiperone Bound in Serum (calf caudate; 100.0 μg/Tube TBP): 31.5% | % Change in Buffer (calf caudate; 100.0 μg/Tube TBP): -36% | % Change in Serum (calf caudate; 100.0 μg/Tube TBP): +33% | % 3H-Spiperone Bound in Buffer (calf caudate; [1]): 8.8% | % 3H-Spiperone Bound in Serum (calf caudate; [1]): 28.8% | % Change in Buffer (calf caudate; [1]): -76% | % Change in Serum (calf caudate; [1]): +22%
